Here are results for 2 compounds from ChEMBL document CHEMBL1141455, “The potential of transient receptor potential vanilloid type 1 channel modulators for the treatment of pain” (J Med Chem, 2007).

The chains behind the UniProt entries cited, without tags or fusion partners.
UniProt O35433, whole entry: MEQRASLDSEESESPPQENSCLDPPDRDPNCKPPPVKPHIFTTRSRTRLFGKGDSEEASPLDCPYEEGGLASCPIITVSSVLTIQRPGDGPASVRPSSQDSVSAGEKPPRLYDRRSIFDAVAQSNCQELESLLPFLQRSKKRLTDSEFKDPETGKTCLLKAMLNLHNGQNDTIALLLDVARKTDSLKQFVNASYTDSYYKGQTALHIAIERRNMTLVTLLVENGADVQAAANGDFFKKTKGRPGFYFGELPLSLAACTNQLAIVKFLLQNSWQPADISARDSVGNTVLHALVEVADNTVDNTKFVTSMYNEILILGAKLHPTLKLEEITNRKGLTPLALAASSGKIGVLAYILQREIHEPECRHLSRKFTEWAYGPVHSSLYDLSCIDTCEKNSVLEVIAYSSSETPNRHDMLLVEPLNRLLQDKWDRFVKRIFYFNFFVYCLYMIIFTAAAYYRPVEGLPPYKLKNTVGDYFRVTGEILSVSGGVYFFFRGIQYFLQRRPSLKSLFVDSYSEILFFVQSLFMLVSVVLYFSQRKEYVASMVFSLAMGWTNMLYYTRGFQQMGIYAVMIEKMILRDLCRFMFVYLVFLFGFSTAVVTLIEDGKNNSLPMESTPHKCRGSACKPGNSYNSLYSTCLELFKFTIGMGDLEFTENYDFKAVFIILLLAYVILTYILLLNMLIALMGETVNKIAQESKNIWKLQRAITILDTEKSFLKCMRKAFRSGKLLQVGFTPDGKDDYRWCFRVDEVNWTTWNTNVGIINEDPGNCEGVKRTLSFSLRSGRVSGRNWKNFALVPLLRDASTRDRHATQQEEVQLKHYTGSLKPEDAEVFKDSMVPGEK

Holding throughout (format): functional, cell-based
For assay [1], the target named is T1, Transient receptor potential cation channel subfamily V member 1 (Rattus norvegicus, UniProt O35433). As to the kind of experiment: Antagonist activity at rat TRPV1 expressed in CHO cells assessed as blockade of acid-induced receptor activation by [45Ca2+] uptake assay.
Assay [2] has as its target T1, Transient receptor potential cation channel subfamily V member 1. As to the kind of experiment: Antagonist activity at rat TRPV1 expressed in CHO cells assessed as blockade of capsaicin-induced receptor activation by [45Ca2+] uptake assay.
The target is the same in assay [3]. As to the kind of experiment: Antagonist activity at rat TRPV1 expressed in HEK293 cells assessed as blockade of capsaicin-induced receptor activation by FLIPR assay.
For assay [4] the target is unchanged. As to the kind of experiment: Antagonist activity at rat TRPV1 expressed in HEK293 cells assessed as blockade of acid-induced receptor activation by FLIPR assay.

Each structure is given as a SMILES string.

Turning to `CC(C)(C)c1ccc(/C=C/C(=O)Nc2ccc3c(c2)OCCO3)cc1`, the values for the IC50 in assay [1] and in assay [2] were 294 nM and 86 nM, respectively.

In the case of `CC(C)(C)c1ccc(NC(=O)N2CCN(c3ncccc3Cl)CC2)cc1`, the IC50 turned out to be 1.9 nM in assay [3], 0.7 nM in assay [1] and 0.6 nM in assay [4].

Broadly, the IC50 is the midpoint of a concentration-inhibition curve.
